Data from PubChem BioAssay AID853 (Columbia University Molecular Screening Center, 2007).
Only a part is listed here, and it is no random draw. Calls of active or inactive are those of the source.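 Rule for the calls: active = inhibition of aggregate fluorescence above about 70%, also judged a hit by eye on the cell image (limit read from the data, passing the limit was not always enough); inconclusive = no rule stated for this call; inactive = not judged a hit on image review.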

Assay: clearance of mutant huntingtin inclusions, primary screen, imaging, HeLa Exon1htt(103Q)mCFP, confocal imaging (AID 853);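 note: cells exposed to compound for three days before fixation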
Conditions: aggregate imaging, at 1.5 µM, active compounds read high, zero = plate's median compound well

Compound	inhibition
Cc1cc(C)cc(OP(C)(=O)Nc2ccc(C)cc2C)c1 (centres undefined)	inactive: 42.1%
Cc1ccc(C)c(NP(C)(=O)Oc2ccccc2)c1 (centres undefined)	inactive: -40.3%
CCOP1(=S)c2c(C)nn(CCC#N)c2N=C(c2ccccc2F)N1C (centres undefined)	inactive: 12.9%
Cc1nn(-c2ccccc2)c2c1P(=O)(N1CCOCC1)N(C)C(c1ccccc1)=N2 (centres undefined)	inactive: -24.7%
O=P1(Nc2ncccn2)COc2ccccc2OC1	inactive: 26.6%
O=P1(Nc2ccc(Br)cn2)COc2ccccc2OC1	inactive: -24.4%
O=P1(Nc2ccccn2)COc2ccccc2OC1	inactive: -44.5%
Clc1n[nH]nc1-c1nn[nH][15n]1	inactive: -9.3%
CC1(CBr)Cn2c(nc3ccccc3c2=O)S1 (centres undefined)	inactive: 53.1%
COP1(=S)c2c(C)nn(CCC#N)c2N=C(c2ccc(F)cc2)N1C (centres undefined)	inactive: 61.4%
CCC(C)N(CC(C)C)C(=S)SC(NC(C)=O)C(Cl)(Cl)Cl (centres undefined)	inactive: -55.5%
CP(=S)(Nn1cnnc1)Oc1ccccc1 (centres undefined)	inactive: -101%
CN1CCCC(OC(=O)C(c2ccccc2)c2ccccc2)C1 (centres undefined)	inactive: -111%
Cc1c2non([O-])c-2c(C)[n+](=O)[n+]1[O-]	inactive: 3.1%
CCc1ccc(OP(C)(=O)O)cc1	inactive: 28.8%
Cc1nc2ccc3ccccc3c2o1.O=[N+]([O-])c1cc([N+](=O)[O-])c(O)c([N+](=O)[O-])c1	inactive: -23.5%
CP(=O)(OC12CC3CC(CC(C3)C1)C2)OC12CC3CC(CC(C3)C1)C2	inactive: 15%
CCN(CC)CC(O)COC(=O)C(O)(c1ccccc1)C1CCCCC1 (centres undefined)	inactive: -28.1%
CCc1nc2c(n1)c1c(non1O)c1c2no[n+]1[O-]	inactive: -10.5%
CP(=O)(Oc1ccccc1)N1CCOC1=O (centres undefined)	active: 73.9%
CC1CCN(C(=O)Oc2c(Cl)cc(Cl)c3cccnc23)CC1	inactive: -8.5%
O=P(Nc1nccs1)(c1ccccc1)c1ccccc1	inactive: 66.7%
CCOP(C)(=S)SCC(=O)NC(C)(CC)C(=O)O (centres undefined)	inactive: -41.6%
CP(=O)(Nc1ccc2c(c1)OCCO2)Oc1ccccc1 (centres undefined)	inactive: 12%
CN(C)CCOC(=O)C(O)(c1ccccc1)C1CCCCC1 (centres undefined)	inactive: -1.2%
O=C(OC1CN2CCC1CC2)c1cccc(Cl)c1 (centres undefined)	inactive: -99.6%
CP(=O)(Nc1ccccc1)Oc1ccc(F)cc1 (centres undefined)	inactive: -2.7%
O=P1(Nc2nc3ccc(Cl)cc3s2)COc2ccccc2O1 (centres undefined)	inactive: 0.8%
CP(=O)(Nc1ccccc1F)Oc1ccccc1 (centres undefined)	inactive: -1.1%
